Experimental data taken from patent US12139488B2, “Pyrido[3,2-d]pyrimidine compounds uses thereof for treating a proliferative disease” (Universite de Montreal, priority 2021, dated 2024).

What was measured:
[1] = system: pERK in NCI-H2122 cells (KRAS-G12C); assay: Phospho-ERK inhibition (AlphaLISA), NCI-H2122; details: for NCI-H2122 pERK % Ymin: NCI-H2122, value in parentheses; for pIC50: read-out: NCI-H2122 pERK IC50, NCI-H2122
Protocol: (§1) All cancer cell lines (A375, A101D, A2058, RKO, HT29 SK-MEL 30, IPC298, HepG2, HCT-116, Lovo, SWV620, SW480, NCI-H358, NCI-H2122, Calu-6, NCIH2087, NCIH1755, NCIH1666 and Mewo) were obtained from ATCC and cultured in RPMI-1640 medium (Gibco) supplemented with 5% heat inactivated fetal bovine serum (FBS, Wisent) at 37° C. under 5% CO2. Cells were maintained in T175 flasks (Greiner). They were passaged by removing the culture medium, washing once in 10 mL of room temperature Phosphate Buffered Saline (PBS; Wisent) and incubating at 37° C. with 2 mL of 0.05% Trypsin (Thermo-Fisher). Trypsin was then inactivated by adding complete growth medium and the cells were then replated in a T175 culture dish at the appropriate dilution. All cell lines were routinely tested for mycoplasma contamination. Tissue type and mutational status of each cell line can be found in Table B.
(§2) AlphaLISA® SureFire® Ultra™ p-ERK 1/2 (Thr202/Tyr204) analysis was conducted on cells plated in 100 μL of complete RPMI-1640 growth medium in 96-well flat-bottomed transparent dishes (Costar) at a density indicated in Table C. Cells were maintained overnight at 37° C. under 5% CO2 before treatment with compounds' dilution series for one hour. The cell density in cells/cm^2 corresponds to cell number divided by the area of one well of a 96-well plate ([…]).
(§3) In a dilution series 100 μL/well of test substance dilution prepared in complete RPMI-1640 growth media was added to the cells. The dilution series is selected so that ten concentrations cover a range from 10 μM to 0.33 nM. If necessary the initial concentration of 10 μM is increased to 100 μM or lowered to 1 μM (as in the case of A375 and H1666 cells, which are generally more sensitive to the compounds) and further dilution is carried out accordingly. The final concentration of DMSO in the assay is set at 0.5%.
(§4) After treatment, media was removed and cells were lysed in 50 μL of 1× AlphaScreen Ultra Lysis Buffer (Perkin Elmer). The AlphaLISA® SureFire® Ultra™ p-ERK 1/2 (Thr202/Tyr2O4) (PerkinElmer) reactions were performed with 5 μL of cell lysate according to the manufacturer's specifications in 384-well proxyplates (Perkin Elmer) followed by overnight incubation of the reactions at room temperature in a humidified chamber. After completion of the reactions, the signals were recorded on an EnVision plate reader (Perkin Elmer) using built in AlphaLISA® settings.
(§5) The effect of each compound dilution on the pERK signal was expressed in % inhibition and calculated as follows. An internal 100% inhibition control (1 M trametinib, cat #HY-10999; MedChem Express; CAS #871700-17-3) was included in each plate and used as a measure of pERK background. First, the value obtained for trametinib was subtracted from each data point. The average of DMSO (vehicle) controls (set as 0% inhibition) was established and used to calculate % inhibition: % inhibition=100*(1-((pERK signalcompound)/(pERK signalDMSO)))
(§6) The ability of each compound to inhibit pERK signal was expressed as an IC50 value obtained by plotting the inhibition values for each data point of a dilution series and fitting the obtained curves using a log(agonist) versus response-variable slope (four parameters) function using GraphPadPrism (V7.0) or Dotmatics Screening Ultra platform.
(§7) When present, paradoxical pERK induction is inferred from the negative % inhibition values observed in the pERK IC50 curves of a compound.

[2] = system: HCT-116 cells (KRAS G13D); assay: Proliferation inhibition (CellTiter-Glo), HCT116; details: read-out: HCT116 Prolif. EC50; HCT116, 3 days
Protocol: as §1
(§8) CellTiter-Glo® viability analysis was conducted on cells plated in 100 μL of complete RPMI-1640 growth medium in 96-well flat-bottomed white opaque plates (Greiner or Croning) at a density indicated in Table E (for each CCL, number of cells plated per well of a 96-well plate to perform the CellTiter-Glo® cell viability assay). The cell density in cells/cm^2 would correspond to cell number divided by the area of one well of a 96-well plate (0.32 cm^2). Cells were maintained overnight at 37° C. under 5% CO2 before treatment with compounds' dilution series for 3 days.
(§9) In a dilution series 100 μL/well of test substance dilution prepared in complete RPMI-1640 growth media was added to the cells plated initially in 100 μL of growth media. The dilution series is selected so that ten concentrations cover a range from 10 μM to 0.33 nM. If necessary (as in the case of A375 cells, which were more sensitive to the compounds) the initial concentration of 10 μM is lowered to 1 μM and further dilution is carried out accordingly. The final concentration of DMSO in the assay is set at is 0.5%.
(§10) After 3 days of incubation, the growth media were removed by aspiration and 60 μL of diluted CellTiter-Glo® reagent (10 μL CellTiter-Glo® reagent+50 μL of PBS) was added to each well. Cells were allowed to lyse and to equilibrate in CellTiter-Glo® reagent by 5 min incubation on a plate shaker followed by 10 min incubation at room temperature. Luminescence signals were then acquired on a Synergy Neo2 plate reader (Biotek).
as §5, with “proliferation of cancer cell lines” for “pERK signal”, “μM of trametinib;” for “M trametinib,”, “CellTiter-Glo® signal” for “pERK”, “The” for “First, the”, “inhibition=100*(1−((CellTiter-Glo® signalcompound)/(CellTiter-Glo®” for “inhibition=100*(1-((pERK signalcompound)/(pERK”
as §6, with “proliferation” for “pERK signal”, “a EC50” for “an IC50”, “effect” for “inhibition”

[3] = system: pERK in SW620 cells (KRAS-G12V); assay: Phospho-ERK inhibition (AlphaLISA), SW620; details: for SW620 pERK % Ymin: SW620, value in parentheses; for pIC50: read-out: SW620 pERK IC50, SW620
Protocol: as §1, §2, §3, §4, §5, §6, §7

[4] = system: pERK in HepG2 cells (NRAS-Q61L); assay: Phospho-ERK inhibition (AlphaLISA), HepG2; details: for HepG2 pERK % Ymin: HepG2, value in parentheses; for pIC50: read-out: HepG2 pERK IC50, HepG2
Protocol: as §1, §2, §3, §4, §5, §6, §7

A375 cells (BRAF V600E) = assay: Proliferation inhibition (CellTiter-Glo), A375; details: read-out: A375 Prolif. EC50; A375, 3 days
Protocol: as §1, §8, §9, §10
as §5, with “proliferation of cancer cell lines” for “pERK signal”, “μM of trametinib;” for “M trametinib,”, “CellTiter-Glo® signal” for “pERK”, “The” for “First, the”, “inhibition=100*(1−((CellTiter-Glo® signalcompound)/(CellTiter-Glo®” for “inhibition=100*(1-((pERK signalcompound)/(pERK”
as §6, with “proliferation” for “pERK signal”, “a EC50” for “an IC50”, “effect” for “inhibition”

RKO cells (BRAF V600E) = assay: Proliferation inhibition (CellTiter-Glo), RKO; details: read-out: RKO Prolif. EC50, 3 days
Protocol: as §1, §8, §9, §10
as §5, with “proliferation of cancer cell lines” for “pERK signal”, “μM of trametinib;” for “M trametinib,”, “CellTiter-Glo® signal” for “pERK”, “The” for “First, the”, “inhibition=100*(1−((CellTiter-Glo® signalcompound)/(CellTiter-Glo®” for “inhibition=100*(1-((pERK signalcompound)/(pERK”
as §6, with “proliferation” for “pERK signal”, “a EC50” for “an IC50”, “effect” for “inhibition”

Compound	NCI-H2122 pERK % Ymin [1]	pIC50 [1]	pEC50 [2]	SW620 pERK % Ymin [3]	pIC50 [3]	HepG2 pERK % Ymin [4]	pIC50 [4]	pEC50 (A375 cells (BRAF V600E))	pEC50 (RKO cells (BRAF V600E))
CN(CCN1CCOCC1)S(=O)(=O)c1cn(-c2ccc3ncnc(Nc4c(F)ccc(NS(=O)(=O)c5cccc(Cl)c5Cl)c4F)c3n2)c2ccccc12	11%	6.52 to 7.52	> 7.52	−12%	6.52 to 7.52	3%	> 7.52	> 7.52	> 7.52
CCC1(O)CCN(c2cccc3c2ncn3-c2ccc3ncnc(Nc4c(F)ccc(NS(=O)(=O)c5cccc(Cl)c5Cl)c4F)c3n2)CC1	10%	6.52 to 7.52	> 7.52	−4%	6.52 to 7.52	7%	6.52 to 7.52	> 7.52	> 7.52
O=S(=O)(Nc1ccc(F)c(Nc2ncnc3ccc(-n4cnc5c(N6CCC(O)(C(F)(F)F)CC6)cccc54)nc23)c1F)c1cccc(Cl)c1Cl	21%	6.52 to 7.52	> 7.52	−13%	6.52 to 7.52	−7%	6.52 to 7.52	> 7.52	> 7.52
Cc1c(F)cccc1S(=O)(=O)Nc1ccc(F)c(Nc2ncnc3ccc(-n4nc(C(=O)N(C)Cc5cccnc5)c5ccccc54)nc23)c1F			> 7.52					> 7.52	> 7.52
COc1ccc(S(=O)(=O)Nc2ccc(F)c(Nc3ncnc4ccc(-n5cc(S(=O)(=O)N(C)CCN(C)C)c6ccccc65)nc34)c2F)c(C)c1F	20%	6.52 to 7.52	> 7.52	−18%	6.52 to 7.52	−3%	6.52 to 7.52	> 7.52	> 7.52
Cc1c(Cl)cccc1S(=O)(=O)Nc1ccc(F)c(Nc2ncnc3ccc(-n4cnc5c(N)cccc54)nc23)c1F	9%	6.52 to 7.52	> 7.52	−6%	6.52 to 7.52	5%	6.52 to 7.52	> 7.52	> 7.52
O=S(=O)(Nc1ccc(F)c(Nc2ncnc3ccc(-n4nnc5ccccc54)nc23)c1F)c1cccc(Cl)c1Cl	−9%	6.52 to 7.52	5.52 to 6.52	4%	6.52 to 7.52	11%	> 7.52	> 7.52	> 7.52

pEC50, pIC50: −log10 of the molar value.
